AlphaSeq binding of Ab-14 heavy chain variants to a spike HR2 peptide

Target peptide (SARS-CoV-2 spike, HR2 region): PDVDLGDISGINAS

The variants keep the light chain, the linker and the frameworks of Ab-14 (scFv order VH, a 15-residue (Gly4Ser)3 linker, VL).
VH: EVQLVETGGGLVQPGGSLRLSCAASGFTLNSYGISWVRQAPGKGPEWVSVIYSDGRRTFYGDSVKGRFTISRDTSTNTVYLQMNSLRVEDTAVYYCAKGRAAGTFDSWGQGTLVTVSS
VL: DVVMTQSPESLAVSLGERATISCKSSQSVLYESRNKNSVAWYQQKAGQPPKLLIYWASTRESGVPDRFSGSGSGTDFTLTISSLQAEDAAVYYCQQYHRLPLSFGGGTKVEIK

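Designed CDR sequences, proposed from the first random library and measured here. Group labels follow the data file (Ctrl: baseline library sampled from a position-specific scoring matrix, with some repeated check sequences; En: ensemble of fine-tuned language models; GP: Gaussian process model; GPLM: also part of the Gaussian process libraries; HC: hill climbing; Gen: genetic algorithm; Gibbs: Gibbs sampling; a sequence that several methods proposed may carry one label only). The assay is AlphaSeq: two haploid yeast populations carry antibody and antigen on their surface. Binding brings cells together so that they mate, and sequencing counts the barcode pairs among the diploids. A regression on co-assayed BCL2-family reference pairs converts the normalised counts of each replicate to an apparent Kd. There are six technical replicates.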

The whole VH of each variant is written out.
Affinities are written as log10 Kd with Kd in nM; a lower number is a better binder.
Replicates are averaged; those with no signal do not enter the mean.
A pair that was not seen in any replicate is written "not detected"; this usually means weak binding, but a binder can also be missed.

VH,group,"mean, log10 nM",detected
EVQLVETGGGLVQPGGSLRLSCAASGFELNSYGISWVRQAPGKGPEWVSVIYSDGRRTFYGDDVKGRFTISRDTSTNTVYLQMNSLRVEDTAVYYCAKGSEAGTFDSWGQGTLVTVSS,GP_Gibbs,0.05,6/6
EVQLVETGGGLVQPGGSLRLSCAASGFDLNEYGISWVRQAPGKGPEWVSVIYADGMRTYYADDVKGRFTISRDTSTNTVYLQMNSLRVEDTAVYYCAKGNVAGTFDTWGQGTLVTVSS,En_Gen,-0.51,6/6
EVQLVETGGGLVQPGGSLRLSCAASGFDLNEYGISWVRQAPGKGPEWVSVIYADGRRTAYKDSVKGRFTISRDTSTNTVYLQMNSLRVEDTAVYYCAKGQLAGTFDTWGQGTLVTVSS,En_HC,-0.72,6/6
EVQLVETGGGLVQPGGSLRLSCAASGFDLNEYGISWVRQAPGKGPEWVSVIYADGMRTAYIDSVKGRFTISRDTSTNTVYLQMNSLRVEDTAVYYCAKGETAGTFDLWGQGTLVTVSS,En_Gen,-0.26,6/6
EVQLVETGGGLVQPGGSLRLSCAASGFGMEEYGISWVRQAPGKGPEWVSVIYADGQRNAYADEVKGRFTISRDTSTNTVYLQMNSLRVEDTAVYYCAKGENAGSFDIWGQGTLVTVSS,En_Gibbs,-0.08,6/6
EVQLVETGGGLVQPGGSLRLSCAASGFTLNSYGISWVRQAPGKGPEWVSVIYADGRRTFYGDSVKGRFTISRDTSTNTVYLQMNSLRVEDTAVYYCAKGRQAGTFDSWGQGTLVTVSS,Ctrl,0.26,6/6
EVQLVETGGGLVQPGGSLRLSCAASGFSLDEMGISWVRQAPGKGPEWVSVIYADGVRTAYVDQVKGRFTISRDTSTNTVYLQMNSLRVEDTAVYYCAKGMGGTFMNVWGQGTLVTVSS,En_Gibbs,-0.81,6/6
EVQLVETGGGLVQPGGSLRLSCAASKFSLNNYGISWVRQAPGKGPEWVSVIYSDGRRTFYGDSVKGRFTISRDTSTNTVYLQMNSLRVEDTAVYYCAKGRTAGTFDSWGQGTLVTVSS,GPLM_Gen,not detected,0/6
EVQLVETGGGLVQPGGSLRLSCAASGFTLNSYGISWVRQAPGKGPEWVSVIYSDGKRTFYKDSVKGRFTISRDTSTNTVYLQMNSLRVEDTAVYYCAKGRTAGTFDSWGQGTLVTVSS,GP_Gen,0.23,5/6
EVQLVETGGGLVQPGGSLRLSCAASGFTLNSYGISWVRQAPGKGPEWVSVIYSDGIRTAYLDSVKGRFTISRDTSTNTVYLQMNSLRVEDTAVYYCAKGRAAGIFDSWGQGTLVTVSS,Ctrl,not detected,0/6
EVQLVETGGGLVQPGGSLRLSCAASGFGIDEYGISWVRQAPGKGPEWVSVIYADGQRKMYQDNVKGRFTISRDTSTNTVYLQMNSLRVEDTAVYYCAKGNVGSLGSVWGQGTLVTVSS,En_Gibbs,not detected,0/6
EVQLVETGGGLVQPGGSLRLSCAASGFTLLSYGISWVRQAPGKGPEWVSVIYADGRRTFYGDSVKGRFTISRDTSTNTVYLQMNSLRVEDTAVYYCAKGRAAGTFDSWGQGTLVTVSS,GPLM_Gen,1.82,1/6
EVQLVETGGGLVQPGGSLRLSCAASGFDIQEYGISWVRQAPGKGPEWVSVIYADGMRVSYTNTVKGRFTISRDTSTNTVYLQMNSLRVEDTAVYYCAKGGNSMISATWGQGTLVTVSS,En_Gibbs,not detected,0/6
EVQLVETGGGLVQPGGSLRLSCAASWFELNSYGISWVRQAPGKGPEWVSVIYSDGRRTFYADSVKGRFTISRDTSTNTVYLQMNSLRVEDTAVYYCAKGRTAGTFDSWGQGTLVTVSS,GP_Gen,not detected,0/6
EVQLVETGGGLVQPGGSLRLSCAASGFDLEDYGISWVRQAPGKGPEWVSVIYADGMRTAYADSVKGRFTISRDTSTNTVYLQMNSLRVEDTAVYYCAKGNVAGTFDIWGQGTLVTVSS,En_Gen,-0.47,6/6
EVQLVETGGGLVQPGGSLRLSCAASGFDLDEYGISWVRQAPGKGPEWVSVIYADGRRTAYVDSVKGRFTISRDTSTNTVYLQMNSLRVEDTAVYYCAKGNNAGTFDVWGQGTLVTVSS,En_Gen,-0.09,6/6

Nonspecific signal, from three strains lacking the peptide, appeared in 1% of pairings of all heavy chain designs, centred on 2.08 (5% of these signals below 0.84); values are not corrected for it.
Of ten entries with the parent sequence, four were seen in most replicates (averages 0.34 to 2.37), three in one and three in none, so single entries are noisy.
The range of this assay differs from that of the first round, and the authors advise against merging the two.
The authors averaged sequences with at least three values out of six and counted those with two or fewer as poor binders.

Source: Li et al. 2023 (doi:10.1038/s41467-023-39022-2), MIT Lincoln Laboratory and A-Alpha Bio; data file from the FLAb repository.